Values of other authors as cited in US11001595B2, “Pyrimidine compounds and pyrimido indole compounds and methods of use” (Duquesne University of the Holy Spirit, priority 2014, dated 2021).

Amino acid sequences for entries named in this document (tags omitted). Residues count along the entry.
UniProt P09619, 33-1106: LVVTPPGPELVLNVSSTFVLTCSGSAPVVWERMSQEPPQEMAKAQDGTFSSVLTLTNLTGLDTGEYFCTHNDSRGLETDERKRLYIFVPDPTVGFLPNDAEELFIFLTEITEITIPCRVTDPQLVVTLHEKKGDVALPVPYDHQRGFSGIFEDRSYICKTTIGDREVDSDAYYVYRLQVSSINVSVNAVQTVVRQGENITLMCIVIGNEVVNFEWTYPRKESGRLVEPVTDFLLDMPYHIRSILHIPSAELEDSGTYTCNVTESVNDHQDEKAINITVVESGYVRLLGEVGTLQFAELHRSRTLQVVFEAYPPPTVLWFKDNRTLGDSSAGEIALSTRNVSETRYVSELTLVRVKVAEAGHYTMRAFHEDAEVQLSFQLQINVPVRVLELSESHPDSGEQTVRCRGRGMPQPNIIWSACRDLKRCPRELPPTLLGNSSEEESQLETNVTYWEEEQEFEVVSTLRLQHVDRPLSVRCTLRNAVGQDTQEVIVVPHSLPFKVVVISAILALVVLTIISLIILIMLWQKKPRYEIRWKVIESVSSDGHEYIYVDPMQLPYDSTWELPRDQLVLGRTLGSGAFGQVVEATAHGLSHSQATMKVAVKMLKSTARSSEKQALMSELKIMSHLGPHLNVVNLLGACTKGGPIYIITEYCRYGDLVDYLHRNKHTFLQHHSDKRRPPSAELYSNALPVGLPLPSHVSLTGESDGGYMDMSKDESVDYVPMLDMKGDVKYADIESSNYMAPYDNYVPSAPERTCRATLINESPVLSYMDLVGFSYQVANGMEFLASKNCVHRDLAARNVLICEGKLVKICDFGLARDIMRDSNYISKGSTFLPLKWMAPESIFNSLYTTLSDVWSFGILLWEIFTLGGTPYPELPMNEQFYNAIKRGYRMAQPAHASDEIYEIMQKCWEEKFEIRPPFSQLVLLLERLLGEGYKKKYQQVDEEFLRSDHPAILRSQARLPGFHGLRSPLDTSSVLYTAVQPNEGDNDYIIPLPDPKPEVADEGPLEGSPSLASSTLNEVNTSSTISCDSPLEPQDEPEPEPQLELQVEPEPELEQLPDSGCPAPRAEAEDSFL

Target: PDGFR-β (Homo sapiens (Human), UniProt P09619)
Settings: read-out: PDGFR-β Kinase Inhibition IC50; cited from earlier work

Q: Which IC50 does the source give for DMBI here?
A: The IC50 was 3.75 ± 0.31 µM.
